Experiments:
[1] = target: c-Src (Homo sapiens (Human), UniProt P12931); test: c-Src enzyme inhibition (Z-LYTE FRET); format: biochemical
Experimental: (§1) The enzyme inhibitory activities of compounds disclosed herein are determined by FRET using synthetic peptides labelled with both donor and acceptor fluorophores (Z-LYTE, Invitrogen Ltd., Paisley, UK).
(§2) The relevant enzyme (3000 ng/mL or 2000 ng/mL respectively, 2.5 μL) is incubated with the test compound (either 4 μg/mL, 0.4 μg/mL, 0.04 μg/mL, or 0.004 μg/mL, 2.5 μL each) for 2 hr at RT. The FRET peptides (8 μM, 2.5 μL), and appropriate ATP solutions (2.5 μL, 800 μM for c-Src, and 60 μM ATP for Syk) are then added to the enzymes/compound mixtures and incubated for 1 hr. Development reagent (protease, 5 μL) is added for 1 hr prior to detection in a fluorescence microplate reader (Varioskan® Flash, ThermoFisher Scientific).
(§3) In all cases, the site-specific protease cleaves non-phosphorylated peptide only and eliminates the FRET signal. Phosphorylation levels of each reaction are calculated using the ratio of coumarin emission (donor) over fluorescein emission (acceptor), for which high ratios indicate high phosphorylation and low ratios indicate low phosphorylation levels.

Amino acid sequences for entries named in this document (tags omitted). A change or cut given only in a name is not applied to a line headed by its entry.
UniProt P12931, whole entry, looked up: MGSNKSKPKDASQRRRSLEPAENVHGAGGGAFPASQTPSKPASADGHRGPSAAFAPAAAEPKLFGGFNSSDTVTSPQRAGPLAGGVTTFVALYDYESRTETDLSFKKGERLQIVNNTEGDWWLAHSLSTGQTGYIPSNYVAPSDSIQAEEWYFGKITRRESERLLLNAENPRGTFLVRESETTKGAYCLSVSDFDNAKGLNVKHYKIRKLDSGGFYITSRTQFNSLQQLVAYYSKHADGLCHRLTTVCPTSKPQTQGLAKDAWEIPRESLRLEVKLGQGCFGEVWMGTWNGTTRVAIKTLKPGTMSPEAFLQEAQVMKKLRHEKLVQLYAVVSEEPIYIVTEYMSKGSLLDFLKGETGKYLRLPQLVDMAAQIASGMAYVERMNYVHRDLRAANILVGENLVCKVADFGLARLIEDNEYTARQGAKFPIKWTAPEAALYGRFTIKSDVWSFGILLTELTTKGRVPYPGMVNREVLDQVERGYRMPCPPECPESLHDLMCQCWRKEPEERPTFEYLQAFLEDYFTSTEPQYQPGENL
UniProt P49840: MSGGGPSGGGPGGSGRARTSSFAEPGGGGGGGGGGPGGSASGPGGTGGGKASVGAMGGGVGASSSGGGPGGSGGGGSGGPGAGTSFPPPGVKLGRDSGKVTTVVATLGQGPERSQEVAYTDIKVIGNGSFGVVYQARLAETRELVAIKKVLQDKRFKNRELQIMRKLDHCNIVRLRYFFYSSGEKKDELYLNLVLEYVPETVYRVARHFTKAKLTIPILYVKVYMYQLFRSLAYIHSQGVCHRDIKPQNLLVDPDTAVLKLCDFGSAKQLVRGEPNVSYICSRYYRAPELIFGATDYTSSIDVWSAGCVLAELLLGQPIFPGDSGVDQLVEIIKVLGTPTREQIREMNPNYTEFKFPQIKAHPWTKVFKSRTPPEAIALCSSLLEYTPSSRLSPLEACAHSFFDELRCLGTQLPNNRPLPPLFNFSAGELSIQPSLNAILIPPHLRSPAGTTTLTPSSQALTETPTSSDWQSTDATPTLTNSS

[2] = target: Syk (Homo sapiens (Human), UniProt P43405); test: Syk enzyme inhibition (Z-LYTE FRET); format: biochemical
Experimental: as §1, §2, §3

[3] = system: TNBS-induced colitis; conditions: dosed orally at 1 or 5 mg/kg, 2 days
[4] = system: PBMCs; test: IL-2 and IFN gamma release in CD3/CD28 stimulated PBMC cells; format: cell-based; conditions: Homo sapiens, read-out: IC50 Values for Inhibition of Cytokine Release PBMCs IFNγ
Experimental: PBMCs from healthy subjects are separated from whole blood using a density gradient (Lymphoprep, Axis-Shield Healthcare). Cells are added to a 96 well plate pre-coated with a mixture of CD3/CD38 monoclonal antibodies (0.3 μg/mL eBioscience and 3 μg/mL BD Pharmingen respectively). Compound at the desired concentration is then added to the wells and the plate left for 3 days under normal tissue culture conditions. Supernatants are harvested and IL-2 and IFN gamma release determined by Sandwich ELISA (Duo-set, R&D System). The IC50 is determined from the dose response curve.

[5] = target: GSK3α (Homo sapiens (Human), UniProt P49840); test: GSK 3α enzyme inhibition (Z-LYTE FRET, Method 2); format: biochemical
Experimental: as §1
The inhibitory activities of compounds of the invention against the GSK 3α enzyme isoform (Invitrogen), are evaluated by determining the level of activation/phosphorylation of the target peptide. The GSK3-α protein (500 ng/mL, 2.5 μL) is mixed with the test compound (2.5 μL at either 4 μg/mL, 0.4 μg/mL, 0.04 μg/mL, or 0.004 μg/mL) for 2 hr at RT. The FRET peptide (8 μM, 2.5 μL), which is a phosphorylation target for GSK3α, and ATP (40 μM, 2.5 μL) are then added to the enzyme/compound mixture and the resulting mixture incubated for 1 hr. Development reagent (protease, 5 μL) is added for 1 hr prior to detection in a fluorescence microplate reader (Varioskan® Flash, ThermoFisher Scientific).
as §3

[6] = system: PBMCs; test: LPS-induced TNFα/IL-8 release in PBMC cells; format: cell-based; conditions: Homo sapiens, read-out: IC50 Values for Inhibition of Cytokine Release PBMCs IL-8
Experimental: Peripheral blood mononuclear cells (PBMCs) from healthy subjects are separated from whole blood using a density gradient (Lymphoprep, Axis-Shield Healthcare). The PBMCs are seeded in 96 well plates and treated with compounds at the desired concentration for 2 hours before addition of 1 ng/mL LPS (Escherichia Coli O111:B4 from Sigma Aldrich) for 24 hours under normal tissue culture conditions (37° C., 5% CO2). The supernatant is harvested for determination of IL-8 and TN Fa concentrations by sandwich ELISA (Duo-set, R&D systems) and read on the fluorescence microplate reader (Varioskan® Flash, ThermoFisher Scientific). The concentration at 50% inhibition (IC50) of IL-8 and TNFα production is calculated from the dose response curve.

Compound	IC50 [1] [nM]	IC50 [2] [nM]	other results
COc1ccc(-n2nc(C(C)(C)C)cc2NC(=O)Nc2ccc(Oc3ccnc(Nc4cccc(OS(C)(=O)=O)c4)n3)c3ccccc23)cn1 [Example 3, 3-(4-((4-(3-(3-(tert-Butyl)-1-(6-methoxypyridin-3-yl)-1H-pyrazol-5-yl)ureido)naphthalen-1-yl)oxy)pyrimidin-2-yl)amino)phenyl methanesulfonate]	16		
COCCOCCOCCOc1cc(Nc2nccc(Oc3ccc(NC(=O)Nc4cc(C(C)C)nn4-c4ccc(C)cc4)c4ccccc34)n2)cc(OC)c1 [Example 13, 1-(3-Isopropyl-1-(p-tolyl)-1H-pyrazol-5-yl)-3-(4-((2-((3-methoxy-5-(2-(2-(2-methoxy-ethoxy)ethoxy)ethoxy)phenyl)amino)pyrimidin-4-yl)oxy)naphthalen-1-yl)urea]		17	activity in in vivo model of colonic inflammation (histopathology analysis) [3]: significant activity
COc1cc(Nc2nccc(Oc3ccc(NC(=O)Nc4cc(C(C)(C)C)nn4-c4ccc(C)cc4)c4ccccc34)n2)cc(S(=O)(=O)C2CC2)c1 [Example 47, 1-(3-(tert-Butyl)-1-(p-tolyl)-1H-pyrazol-5-yl)-3-(4-((2-((3-(cyclopropylsulfonyl)-5-methoxy-phenyl)amino)pyrimidin-4-yl)oxy)naphthalen-1-yl)urea]		119	activity in in vivo model of colonic inflammation (histopathology analysis) [3]: significant activity
COc1cc(Nc2nccc(Oc3ccc(NC(=O)Nc4cc(C(C)(C)C)nn4-c4ccc(C)cc4)c4ccccc34)n2)cc(SCCCO)c1 [Example 48, 1-(3-(tert-Butyl)-1-(p-tolyl)-1H-pyrazol-5-yl)-3-(4-((2-((3-((3-Hydroxypropyl)thio)-5-methoxyphenyl)amino)pyrimidin-4-yl)oxy)naphthalen-1-yl)urea]	22		IC50 [4]: 2.2 nM
COc1cc(Nc2nccc(Oc3ccc(NC(=O)Nc4cc(C(C)(C)C)nn4-c4ccc(C)cc4)c4ccccc34)n2)cc(SCCO)c1 [Example 55, 1-(3-(tert-Butyl)-1-(p-tolyl)-1H-pyrazol-5-yl)-3-(4-((2-((3-((2-hydroxyethyl)thio)-5-methoxyphenyl)amino)pyrimidin-4-yl)oxy)naphthalen-1-yl)urea]	23		
COc1cc(Nc2nccc(Oc3ccc(NC(=O)Nc4cc(C(C)(C)C)nn4-c4ccc(C)cc4)c4ccccc34)n2)cc(OCCOCCOCCN2CCOCC2)c1 [Example 58, 1-(3-(tert-Butyl)-1-(p-tolyl)-1H-pyrazol-5-yl)-3-(4-((2-((3-methoxy-5-(2-(2-(2-morpholinoethoxy)ethoxy)ethoxy)phenyl)amino)pyrimidin-4-yl)oxy)naphthalen-1-yl)urea]	11	28	IC50 [5]: 2810 nM; IC50 [6]: 1.1 nM
COc1ccc(-n2nc(C(C)(C)C)cc2NC(=O)Nc2ccc(Oc3ccnc(Nc4cc(OC)cc(S(=O)(=O)C5CC5)c4)n3)c3ccccc23)cc1 [Example 70, 1-(3-(tert-Butyl)-1-(4-methoxyphenyl)-1H-pyrazol-5-yl)-3-(4-((2-((3-(cyclopropylsulfonyl)-5-methoxyphenyl)amino)pyrimidin-4-yl)oxy)naphthalen-1-yl)urea]	48		
COCCOCCOCCOc1cc(Nc2nccc(Oc3ccc(NC(=O)Nc4cc(C(C)(C)C)nn4-c4ccc(C)cc4)c4ccccc34)n2)cc(OC)c1Cl [Example 72, 1-(3-(tert-Butyl)-1-(p-tolyl)-1H-pyrazol-5-yl)-3-(4-((2-((4-chloro-3-methoxy-5-(2-(2-(2-methoxyethoxyl)ethoxy)ethoxy)phenyl)amino)pyrimidin-4-yl)oxy)naphthalen-1-yl)urea]	39		IC50 [6]: 3.9 nM
